Values of other authors, collected in patent publication US20100105761A1, “TREATMENT OF PAIN THROUGH EXPRESSION OF OPIOID RECEPTORS” (priority 2006, published 2010).

Chains of the proteins cited; added tags and fusions are not shown. Lines headed by an entry give the natural chain unless they say otherwise; changes in a name come on top.
UniProt P41145: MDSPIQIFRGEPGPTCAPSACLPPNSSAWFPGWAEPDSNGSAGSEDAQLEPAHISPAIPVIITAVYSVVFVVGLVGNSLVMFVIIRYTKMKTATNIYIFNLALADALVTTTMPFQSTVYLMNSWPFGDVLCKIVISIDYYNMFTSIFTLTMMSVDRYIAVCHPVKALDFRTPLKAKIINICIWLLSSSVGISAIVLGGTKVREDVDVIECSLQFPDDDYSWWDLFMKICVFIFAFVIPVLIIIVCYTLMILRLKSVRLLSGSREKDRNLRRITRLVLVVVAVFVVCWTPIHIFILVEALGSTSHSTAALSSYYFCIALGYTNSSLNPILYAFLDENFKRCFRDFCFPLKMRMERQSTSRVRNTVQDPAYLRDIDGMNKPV

Key:
δ-receptor = δ-receptor (Homo sapiens, UniProt P41143)
κ-receptor = κ-receptor (Homo sapiens, UniProt P41145)

Compound	antinociception in mice of the CXBX strain (μ receptor)	antinociception in MOR-1 knockout mice, exon-1 disrupted (μ receptor)	affinity / selectivity for δ-receptors (in words) (δ-receptor)	affinity for κ-receptors (in words) (κ-receptor)
CN1CC[C@]23c4c5ccc(O)c4O[C@H]2[C@@H](O)C=C[C@H]3[C@H]1C5 [morphine]	poor antinociceptive agent	not	–	–
Tyr-D-Ala-Phe-Xaa-Val-Val-Gly-NH2, where Xaa is Asp or Glu respectively [[D-Ala2]-deltorphin I]	–	–	highly selective	–
Nociceptin/orphanin FQ	–	–	–	little affinity
CC(C)[C@H](NC(=O)[C@H](CCC(=O)O)NC(=O)[C@H](Cc1ccccc1)NC(=O)[C@@H](C)NC(=O)[C@@H](N)Cc1ccc(O)cc1)C(=O)N[C@H](C(=O)NCC(=O)O)C(C)C [deltorphin, Tyr-D-Met-Phe-His-Leu-Met-Asp-NH2]	–	–	highly selective	–
morphine-6b-glucuronide	potently antinociceptive	still produce antinociception	–	–
